Laboratory results taken from patent US10155733B2, “N-aralkylcarbonyl-piperazine and -homopiperazine compounds and personal care compositions comprising the same” (Conopco, Inc., priority 2015, dated 2018).

By UniProt entry, the sequences of proteins in these tests, tags left out.
UniProt P20309, whole entry: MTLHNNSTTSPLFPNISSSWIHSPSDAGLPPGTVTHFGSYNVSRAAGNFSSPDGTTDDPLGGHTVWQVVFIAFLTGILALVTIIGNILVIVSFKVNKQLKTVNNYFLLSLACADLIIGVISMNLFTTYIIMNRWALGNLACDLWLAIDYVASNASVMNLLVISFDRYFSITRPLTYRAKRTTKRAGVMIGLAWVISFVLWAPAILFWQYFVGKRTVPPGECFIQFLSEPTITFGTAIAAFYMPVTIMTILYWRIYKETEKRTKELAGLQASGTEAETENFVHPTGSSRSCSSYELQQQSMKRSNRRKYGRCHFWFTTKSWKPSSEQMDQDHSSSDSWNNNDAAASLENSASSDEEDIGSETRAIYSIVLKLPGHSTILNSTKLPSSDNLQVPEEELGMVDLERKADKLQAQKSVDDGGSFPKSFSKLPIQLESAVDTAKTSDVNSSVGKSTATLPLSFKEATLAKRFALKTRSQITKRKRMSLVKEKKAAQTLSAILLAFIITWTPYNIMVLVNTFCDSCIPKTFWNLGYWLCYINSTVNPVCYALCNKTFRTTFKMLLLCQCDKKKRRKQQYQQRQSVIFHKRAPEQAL

Target: human M3 receptor (Homo sapiens (Human), UniProt P20309)
Assay: Muscarinic 3 receptor binding assay (3H-scopolamine displacement)
Protocol: The muscarinic 3 receptor binding assay was adapted from Perkin Elmer. […] Atropine (Sigma-Aldrich, St. Louis, Mo.) was used as a positive control. […] The reaction mixtures were then added to matrix 96-well GFC filtration microtiter plates that had been previously pretreated with 0.5% polyethylimine (100 μL) for 4 h and filtered. The binding reactions were terminated by filtering through the GFC plates and washing & filtering with ice-cold phosphate saline buffer (5×100 μL). Once the filters were dry, microscint scintillation cocktail (100 μL) was added to each well, allowed to sit for 20 min and the plates analyzed using a TopCount scintillation counter. […] Curve fitting of % inhibition versus concentration using Excell software allowed determination of IC50 values for test compounds.

O=C(CCc1ccccc1)N1CCN(C(=O)C(O)(c2ccccc2)C2CCCC2)CC1 (stereo not shown) [Compound 13]
IC50: 1400 nM
